Ab-14 light chain CDR variants: yeast mating affinities

Reference: Engelhart et al. 2022, doi:10.1038/s41597-022-01779-4. File: FLAb, binding data.

Binding partner: SARS-CoV-2 spike HR2 peptide, sequence PDVDLGDISGINAS.

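The starting antibody came from a phage panning campaign against this peptide. In library AAYL50, one, two or three CDR residues were substituted; doubles and triples were drawn at random. The scFvs were displayed on barcoded MATa yeast, the peptide on MATalpha yeast. Mating (16 h, 30 °C) was followed by selection of diploids and sequencing of their barcodes. Scores were corrected for input abundance and mapped to Kd with protein pairs of known affinity run in the same pool. Mating was done three times.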

Ab-14 is the parent antibody, in scFv form: VH, then a (GGGGS)3 linker, then VL. The heavy chain is unchanged in all variants.
VH: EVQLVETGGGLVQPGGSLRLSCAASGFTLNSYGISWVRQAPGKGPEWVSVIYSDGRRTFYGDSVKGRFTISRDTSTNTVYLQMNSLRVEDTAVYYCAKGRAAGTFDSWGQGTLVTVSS
VL: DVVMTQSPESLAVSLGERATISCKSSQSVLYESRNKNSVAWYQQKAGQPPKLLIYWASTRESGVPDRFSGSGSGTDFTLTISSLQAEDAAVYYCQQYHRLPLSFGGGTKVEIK

Each variant is given by its three light chain CDRs, as the data file delimits them; those of the parent are KSSQSVLYESRNKNSVA, WASTRES, QQYHRLPLS.
This list gathers variants with a substitution at R99 (VL, numbered from residue 1).
Values are apparent Kd, the geometric mean of the replicates that gave a signal; lower means stronger binding.
An entry "nd" has no value in the source: the pair was not observed among the diploids in any replicate. This suggests poor binding but is not conclusive.
Empty control strains, which show no peptide, gave a signal in 18% of pairings with library AAYL50; the median was 15 µM and 95% of these signals were weaker than 970 nM. No background was subtracted.

Variant KSSQSVLYESRNKNSVA | WASWRES | QQYHYLRLS showed 19 nM (3 of 3 replicates). For KSSQSVLYSSRNKNSVA | WASTGES | QQYHTLPLS, the assay gave 16 µM (1 of 3 replicates). Variant KDAQSVLYESRNKNSVA | WASTRES | QQYHALPLS showed 560 nM (3 of 3 replicates). With KSSQSVLYESRVKNSVA | WASTCES | QQYHFLPLS the result was 4.9 µM (1 of 3 replicates). With KSSQSVLYESCNKNSVA | WASTIES | QQYHKLPLS the result was 4.4 µM (3 of 3 replicates). Variant ESSQSVLYESRNKNSVA | WASTRES | QQYHPLPLE showed nd (0 of 3 replicates).

Variant KSSQSNLYESRNKNSVA | WASTWES | QQYHHLPLS gave nd (0 of 3 replicates). With KLSQSVLYESRNKNSIA | WASTRES | QQYHCLPLS the result was 1.6 nM (3 of 3 replicates). Variant KSSQSVLYESINWNSVA | WASTRES | QQYHHLPLS gave 13 nM (3 of 3 replicates). For KSSQSALYESRNKNSVA | WAPTRES | QQYHCLPLS, the assay gave 18 µM (2 of 3 replicates). Variant KSSQSVLYESRYKNSVA | WASTRES | QQYHTLPLS gave 470 nM (3 of 3 replicates). For KSSQSVLYPSRNKNSVA | WASTRES | QQYHHLPLI, the assay gave nd (0 of 3 replicates).

Variant KSSQSVLYESRNLNSVA | WASTRES | QQYKGLPLS showed 120 nM (3 of 3 replicates). For KSSQSVLYESRFKNSVA | WASTRMS | QQYHTLPLS, the assay gave nd (0 of 3 replicates). With VSSQSVLYESRNKNSVA | WASTRES | QQPHMLPLS the result was nd (0 of 3 replicates). With KSSQSVLYESRNKNSVA | WLSTRES | QQYHALPLG the result was nd (0 of 3 replicates). Variant KSSQFVLYESCNKNSVA | WASTRES | QQYHALPLS showed 1.2 µM (3 of 3 replicates). With KSSQSVCKESRNKNSVA | WASTRES | QQYHWLPLS the result was 220 nM (3 of 3 replicates).

With KSSQLVLYESRNKNSPA | WASTRES | QQYHSLPLS the result was nd (0 of 3 replicates). With KSIQSVLYESRNKNSVA | WASTRES | QQYHMLPLS the result was 2.5 µM (2 of 3 replicates). Variant KSVQSVLYESRNKNSVA | WRSTRES | QQYHYLPLS showed 3.0 µM (1 of 3 replicates). For KSSQSVLTESRNKNSVA | YASTRES | QQYHQLPLS, the assay gave 11 nM (3 of 3 replicates). Variant KSSQSVLYESRNKNSVA | WASTGES | QQYHMLPLS gave 110 µM (1 of 3 replicates). Variant KSAQSVLYESRNKVSVA | WASTRES | QQYHYLPLS gave nd (0 of 3 replicates).

For KSSQSVVYESRNKNSVA | WASTRES | QQYHKLPLS, the assay gave 21 nM (3 of 3 replicates). For KSSSSVLYESRNKNSVA | WASTRES | QQYHVLPQS, the assay gave 150 nM (3 of 3 replicates). Variant KSSQSVLYEGRNKNSVA | WASMRES | QQYHVLPLS gave 55 nM (3 of 3 replicates). For KSSQSVLYESRNKNSVA | WASTTES | QQYHHLPAS, the assay gave 650 nM (1 of 3 replicates). Variant KPSQSVLYESRNKNSVA | WASTRES | QQYAVLPLS gave 13 nM (3 of 3 replicates). Variant KSRQSVLYESRNKNSVA | QASTRES | QQYHWLPLS showed 1.7 nM (3 of 3 replicates).

For ESSQSVLYESRNKNSVA | WASTRES | QQNHILPLS, the assay gave 400 nM (3 of 3 replicates).